According to paper PMC11724075, “Small-molecule-induced ERBB4 activation to treat heart failure” (Nature Communications, 2025):

System: mouse model of MI
Experiment: Mouse model of MI, histology: CSA, capillaries, interstitial fibrosis, scar size
Conditions: MI experiment, male mice, MI/EF-1; MI experiment in female mice
Experimental: Twelve-week-old female and male Balb/cJ (Charles River, 000651) mice were randomized into either the ctrl or MI group. Mice in the MI group underwent surgical ligation of the LAD, while mice in the ctrl group underwent a sham procedure (n = 8 female mice, n = 10 male mice). Briefly, all mice received an injection of 0.1 mg/kg buprenorphine (Produlab Pharma) before induction of anesthesia with 8% sevoflurane (Zoetis). Anesthesia was maintained with 4.5% sevoflurane and mice were intubated and ventilated. An incision of 15 mm was made on the left side of the thorax and the thoracic cavity was opened at the third intercostal space using blunt forceps. […]
Hearts were fixed in 4% PFA, paraffin-embedded, and cut into 5-µm sections. Images were acquired with an Olympus BX43 microscope (Olympus Stream Motion Software) or a CELENA® S Digital Imaging System and analyzed with ImageJ 2.14.0 software. […] Cardiac total fibrosis was expressed as the ratio of positively stained fibrotic area (blue) to the total area and perivascular fibrosis as the ratio of fibrotic area to vascular lumen area. Scar size was determined by measuring the scar length over the total heart area. […] Quantification was performed by a person blinded to the treatment protocol.

## O=C(NC1CC1)C(Sc1nc2ccccc2c(=O)n1C1CCCC1)c1ccccc1 (stereo not shown) [EF-1]
  cardiomyocyte cross-sectional area: 615.176 µm²
